{"source": "patent US20160335412A1", "about": "“SYSTEMS AND METHODS FOR PREDICTING AND ADJUSTING THE DOSAGE OF MEDICINES IN INDIVIDUAL PATIENTS” (priority 2013, published 2016)", "details": "20 mg/day oral; 70 kg, heavy smoker; hypothetical case ('Consider ...')"}
{"smiles": "Cc1cc2c(s1)Nc1ccccc1N=C2N1CCN(C)CC1", "note": "[olanzapine]", "values": [{"measurement": "sustained maximum plasma drug concentration", "value": 65, "unit": "ng/mL"}]}
